Laboratory results: ChEMBL document CHEMBL1641579, “Synthesis and biological evaluation of 7-substituted-1-(3-bromophenylamino)isoquinoline-4-carbonitriles as inhibitors of myosin light chain kinase and epidermal growth factor receptor” (Bioorg Med Chem, 2011)

The chains behind the UniProt entries cited, without tags or fusion partners.
UniProt Q15746, whole entry: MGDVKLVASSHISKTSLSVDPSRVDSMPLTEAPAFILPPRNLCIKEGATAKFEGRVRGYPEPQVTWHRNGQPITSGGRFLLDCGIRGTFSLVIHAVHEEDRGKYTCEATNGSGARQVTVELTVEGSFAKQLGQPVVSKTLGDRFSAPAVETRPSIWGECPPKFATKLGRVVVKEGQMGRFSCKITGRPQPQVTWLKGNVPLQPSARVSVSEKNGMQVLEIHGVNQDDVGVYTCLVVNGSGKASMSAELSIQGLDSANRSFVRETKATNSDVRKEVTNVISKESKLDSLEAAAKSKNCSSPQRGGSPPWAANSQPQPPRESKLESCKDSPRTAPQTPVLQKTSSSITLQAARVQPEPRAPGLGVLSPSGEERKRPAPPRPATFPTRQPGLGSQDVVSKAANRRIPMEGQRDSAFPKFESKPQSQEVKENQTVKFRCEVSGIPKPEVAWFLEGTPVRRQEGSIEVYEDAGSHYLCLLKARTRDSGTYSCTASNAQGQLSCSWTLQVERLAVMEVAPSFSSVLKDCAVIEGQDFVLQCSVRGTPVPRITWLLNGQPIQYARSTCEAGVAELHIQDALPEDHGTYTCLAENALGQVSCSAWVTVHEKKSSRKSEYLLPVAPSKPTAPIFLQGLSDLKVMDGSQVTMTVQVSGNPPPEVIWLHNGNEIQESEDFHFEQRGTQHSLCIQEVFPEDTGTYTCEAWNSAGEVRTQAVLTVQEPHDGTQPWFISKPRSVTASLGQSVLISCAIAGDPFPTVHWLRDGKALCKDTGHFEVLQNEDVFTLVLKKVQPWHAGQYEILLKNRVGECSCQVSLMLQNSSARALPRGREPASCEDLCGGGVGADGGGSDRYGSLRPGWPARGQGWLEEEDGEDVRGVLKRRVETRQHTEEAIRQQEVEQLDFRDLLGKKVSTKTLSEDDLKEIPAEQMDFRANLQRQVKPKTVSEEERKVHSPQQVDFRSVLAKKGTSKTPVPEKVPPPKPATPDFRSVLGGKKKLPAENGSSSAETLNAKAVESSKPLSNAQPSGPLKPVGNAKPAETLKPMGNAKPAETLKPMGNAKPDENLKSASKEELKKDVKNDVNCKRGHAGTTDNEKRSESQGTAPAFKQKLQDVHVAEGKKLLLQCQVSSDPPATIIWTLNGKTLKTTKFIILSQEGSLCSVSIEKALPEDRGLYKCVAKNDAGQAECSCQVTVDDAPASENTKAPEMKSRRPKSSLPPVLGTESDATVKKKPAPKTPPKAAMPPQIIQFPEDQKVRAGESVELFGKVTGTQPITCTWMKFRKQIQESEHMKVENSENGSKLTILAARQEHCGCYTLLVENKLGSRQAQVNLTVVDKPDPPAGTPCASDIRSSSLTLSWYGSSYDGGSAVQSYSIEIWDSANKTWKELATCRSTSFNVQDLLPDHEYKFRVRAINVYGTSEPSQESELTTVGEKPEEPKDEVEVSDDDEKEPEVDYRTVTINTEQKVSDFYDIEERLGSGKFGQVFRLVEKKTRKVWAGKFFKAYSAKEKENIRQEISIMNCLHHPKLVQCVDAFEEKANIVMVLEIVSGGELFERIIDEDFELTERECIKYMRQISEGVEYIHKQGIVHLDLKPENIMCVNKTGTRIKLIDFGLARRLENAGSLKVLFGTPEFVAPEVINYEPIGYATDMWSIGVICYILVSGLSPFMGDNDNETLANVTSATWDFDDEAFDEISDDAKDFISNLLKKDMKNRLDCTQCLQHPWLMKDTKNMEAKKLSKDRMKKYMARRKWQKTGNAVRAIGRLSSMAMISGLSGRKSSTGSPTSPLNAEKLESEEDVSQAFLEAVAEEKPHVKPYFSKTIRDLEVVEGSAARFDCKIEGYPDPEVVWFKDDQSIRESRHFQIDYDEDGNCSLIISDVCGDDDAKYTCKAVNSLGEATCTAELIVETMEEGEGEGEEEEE

Biological target: Myosin light chain kinase, smooth muscle (Homo sapiens, UniProt Q15746)
Assay: Inhibition of MLCK by HTRF assay
How it was run: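 HTRF activity assay with peptide substrate STK1 at 375 nM and ATP at its Km (18 µM), in the presence of Ca2+/calmodulin. Kinase and inhibitor preincubated 30 min, then ATP plus substrate added. Detection by Eu-cryptate anti-phospho-STK1 antibody and streptavidin-XL665, with the 665/620 nm FRET ratio read. Eight inhibitor concentrations, Hill 4-parameter fit. At least two independent runs, each in duplicate. NI means no inhibition up to 40 µM.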

COC(=O)[C@@]1(O)C[C@H]2O[C@]1(C)n1c3ccccc3c3c4c(c5c6ccccc6n2c5c31)C(=O)NC4 [K-252A]
Ki: 20 nM
